# Patent US20150299305A1 (Alexion, published 2015)
# B1: BNJ441 (antibody, human IgG2, kappa)
# heavy: QVQLVQSGAEVKKPGASVKVSCKASGHIFSNYWIQWVRQAPGQGLEWMGEILPGSGHTEYTENFKDRVTMTRDTSTSTVYMELSSLRSEDTAVYYCARYFFGSSPNWYFDVWGQGTLVTVSSASTKGPSVFPLAPCSRSTSESTAALGCLVKDYFPEPVTVSWNSGALTSGVHTFPAVLQSSGLYSLSSVVTVPSSNFGTQTYTCNVDHKPSNTKVDKTVERKCCVECPPCPAPPVAGPSVFLFPPKPKDTLMISRTPEVTCVVVDVSQEDPEVQFNWYVDGVEVHNAKTKPREEQFNSTYRVVSVLTVLHQDWLNGKEYKCKVSNKGLPSSIEKTISKAKGQPREPQVYTLPPSQEEMTKNQVSLTCLVKGFYPSDIAVEWESNGQPENNYKTTPPVLDSDGSFFLYSRLTVDKSRWQEGNVFSCSVLHEALHSHYTQKSLSLSLGK
# light: DIQMTQSPSSLSASVGDRVTITCGASENIYGALNWYQQKPGKAPKLLIYGATNLADGVPSRFSGSGSGTDFTLTISSLQPEDFATYYCQNVLNTPLTFGQGTKVEIKRTVAAPSVFIFPPSDEQLKSGTASVVCLLNNFYPREAKVQWKVDNALQSGNSQESVTEQDSKDSTYSLSSTLTLSKADYEKHKVYACEVTHQGLSSPVTKSFNRGEC
# notes: IgG2/G4, kappa; also called BNJ441 antibody; BNJ441 engineering batch
# B2: EHG303 (antibody, human IgG2, kappa)
# heavy: LEQVQLVQSGAEVKKPGASVKVSCKASGHIFSNYWIQWVRQAPGQGLEWMGEILPGSGHTEYTENFKDRVTMTRDTSTSTVYMELSSLRSEDTAVYYCARYFFGSSPNWYFDVWGQGTLVTVSSASTKGPSVFPLAPCSRSTSESTAALGCLVKDYFPEPVTVSWNSGALTSGVHTFPAVLQSSGLYSLSSVVTVPSSNFGTQTYTCNVDHKPSNTKVDKTVERKCCVECPPCPAPPVAGPSVFLFPPKPKDTLMISRTPEVTCVVVDVSQEDPEVQFNWYVDGVEVHNAKTKPREEQFNSTYRVVSVLTVLHQDWLNGKEYKCKVSNKGLPSSIEKTISKAKGQPREPQVYTLPPSQEEMTKNQVSLTCLVKGFYPSDIAVEWESNGQPENNYKTTPPVLDSDGSFFLYSRLTVDKSRWQEGNVFSCSVMHEALHNHYTQKSLSLSLGK
# light: RDIQMTQSPSSLSASVGDRVTITCGASENIYGALNWYQQKPGKAPKLLIYGATNLADGVPSRFSGSGSGTDFTLTISSLQPEDFATYYCQNVLNTPLTFGQGTKVEIKRTRTVAAPSVFIFPPSDEQLKSGTASVVCLLNNFYPREAKVQWKVDNALQSGNSQESVTEQDSKDSTYSLSSTLTLSKADYEKHKVYACEVTHQGLSSPVTKSFNRGEC
# notes: also called Y27H-S57H double substitution
# How the values were obtained:
# [1] = target: T1, human complement component C5 (human, UniProt P01031 19-673; P01031 678-1676); experiment: SPR, anti-Fc capture, pH 8.0
# T1 construct: mature; Native purified protein; also called human C5; hC5
# [2] = target: T1, human complement component C5; experiment: SPR, anti-Fc capture, pH 7.0
# [3] = target: T1, human complement component C5; experiment: SPR, anti-Fc capture, pH 6.0
# [4] = target: T1, human complement component C5; experiment: SPR, anti-Fc capture, pH 7.4
# [5] = target: T1, human complement component C5; experiment: SPR, pH 6.0
# [6] = target: T1, human complement component C5; experiment: SPR, pH 7.4
# [7] = target: T1, human complement component C5; experiment: SPR, anti-Fc capture, pH 6.5
# [8] = target: T1, human complement component C5; experiment: SPR, anti-Fc capture, C5 0.19-6 nM, pH 7.4
# [9] = target: T1, human complement component C5; experiment: SPR, pH 6.0; remark: listed apart in the source
# [10] = target: T1, human complement component C5; experiment: ratio of the KDs of Table 4 at pH 6.0 and pH 7.4
# [11] = target: T1, human complement component C5; experiment: SPR
# [12] = target: T1, human complement component C5; experiment: SPR, pH 7.4; remark: listed apart in the source
binder,measurement,setting,value
B1,Kd,[1],0.213 nM
same,koff,[1],0.000133 s⁻¹
same,kon,[1],625000 M⁻¹ s⁻¹
same,Kd,[2],0.911 nM
same,koff,[2],0.00039 s⁻¹
same,kon,[2],428000 M⁻¹ s⁻¹
same,Kd,[3],21.8 nM
same,koff,[3],0.00354 s⁻¹
same,kon,[3],163000 M⁻¹ s⁻¹
same,Kd,[4],0.491 nM
same,koff,[4],0.000227 s⁻¹
same,kon,[4],462000 M⁻¹ s⁻¹
same,fold weakening of KD compared with eculizumab,[5],~36 fold
same,fold weakening of KD compared with eculizumab,[6],~17 fold
same,Kd,[7],2.19 nM
same,koff,[7],0.000894 s⁻¹
same,kon,[7],408000 M⁻¹ s⁻¹
same,Kd,[8],0.461 nM and 0.421 nM
same,koff,[8],0.000205 s⁻¹ and 0.000204 s⁻¹
same,kon,[8],444000 M⁻¹ s⁻¹ and 486000 M⁻¹ s⁻¹
B2,Kd,[9],1190 nM
same,ratio of (KD at pH 6.0)/(KD at pH 7.4),[10],> 8000
same,ratio of KD at pH 6.0/pH 7.4,[11],8150
same,Kd,[12],0.146 nM

# Where “and” joins values, the source holds several entries; their conditions need not be identical. Equal entries are not always repeated.
